System: human recombinant carboxylesterases
Experiment: In vitro metabolic stability (rate of metabolite formation) in human recombinant carboxylesterases
Type: in vitro ADME
Conditions: 1 μM test compound, 0.1 mg/mL human recombinant carboxylesterase mixture, pH 6.0, 37° C.
Description: All metabolic stability experiments were performed in triplicate in 96-well plate format.
Internal standards were used to compensate for variability from sample processing, chromatographic elution, mass spectrometer response and ion suppression by matrix components.

7-[1-({[({1-[(4-chlorophenyl)carbonyl]-5-methoxy-2-methyl-1H-inden-3-yl}acetyl)oxy]methoxy}carbonyl)octahydro-6H-pyrrolo[3,4-b]pyridin-6-yl]-1-cyclopropyl-6-fluoro-8-methoxy-4-oxo-1,4-dihydroquinoline-3-carboxylic acid [Compound 62]
Rate of formation Metabolite 1 (Indomethacin) (metabolite Indomethacin): 512 ± 48 nM/min/mg
Rate of formation Metabolite 2 (Moxifloxacin) (metabolite Moxifloxacin): 588 ± 56 nM/min/mg

Source: patent publication US20140256666A1, “ANTIBIOTIC CONJUGATES WITH NONSTEROIDAL ANTI-INFLAMMATORY DRUGS” (Allergan, Inc., priority 2013, published 2014)
